In PubChem BioAssay AID485349 (National Center for Advancing Translational Sciences (NCATS), 2010):
The entries are a selection whose mix differs from that of the whole data set. The source made the active and inactive calls. Calls come from the whole dose curve; as a rule, active = well fitted activation curve with a large enough effect; inconclusive = small, poorly fitted or top-dose-only effect; inactive = no such curve, though single readings can be large or run the other way.

test: qHTS Assay for Identifying a Potential Treatment of Ataxia-Telangiectasia; settings: […] A-T fibroblasts, KAP-1 phosphorylation AlphaLISA, neocarzinostatin DNA damage 30 min before lysis; at 57.5 µM (top of the series) unless noted; note: % of control where 0% means no effect; nearly all actives have a fitted effect of over 45% in size
Text: NIH Chemical Genomics Center [NCGC] NIH Molecular Libraries Probe Centers Network [MLPCN] MLPCN Grant: MH089030-01 Assay Submitter (PI): Wei Zheng and Yosef Shiloh Ataxia-telangiectasia (A-T) is a devastating and progressive disease for which, there is no cure. Although A-T is a multisystem disease, it is stereotyped characterized by its neurological symptoms such as truncal ataxia, due to cerebellar cortical degeneration of the Purkinje and granule cells. Other symptoms of A-T are telangiectasias (dilated blood vessels), primary immunodeficiency, marked sensitivity to ionizing radiation (IR), chromosomal instability and predisposition to cancer. The underlying genetic cause of A-T is null mutations in the ATM (A-T mutated) gene. ATM is a nuclear serine/threonine kinase that functions as a master regulator of the cellular responses to double strand breaks (DSBs) in the DNA. Upon activation by DSBs, ATM phosphorylates a plethora of down stream targets, including KAP-1 on […]. KAP-1 phosphorylation occurs shortly in response to DSBs and mediates global chromatin relaxation, which facilitates DSB repair. To screen for small molecules that will compensate for the loss of ATM in cells derived from A-T patients, we monitored KAP-1 phosphorylation as a readout for ATM-like activity using an AlphaLISA assay.
qHTS Assay Protocol: Step,Parameter,Value,Description 1. Cell Plating, 3 ul, 500 cells/well in OPTI-MEM, 1% FBS, 1% Pen/Strep 2. Incubation, 16-24 hr, 37C, 5% CO2, 95% humidity 3. Library compounds, 23 nl, 76.7 - 0.61uM dilution series final concentration 4. Incubation, 60 min, 37C, 5% CO2, 95% humidity 5. Reagent, 1 ul, 1600 ng/ml NCS in PBS + 0.05% BSA + 0.005% Tween 20 6. Incubation, 30 min, 37C, 5% CO2, 95% humidity 7. Reagent, 1 ul, Premixed detection reagents and lysis buffer 8. Reagent, 1 ul, 0.6% Antifoam A 9. Incubation, 6 hr, 25C, 95% humidity 10. Readout, EnVision, EnVision plate reader. AlphaScreen 1536-well protocol Cells were plated using medium-binding white solid-bottom tissue culture treated Kalypsys plates. Multidrop dispense of 3 uL of […] (hTERT immortalized A-T patient fibroblast cells). Detection reagent and lysis buffer was 3.75nM Rab-a-pKAP1 antibody bound to 75 ng/ul AlphaScreen SA donor bead, 3.75 nM Biot-M-a-KAP1 antibody bound to AlphaLISA protein A acceptor bead, 0.5x protease inhibitor cocktail and 0.25x PerkinElmer lysis buffer. EnVision protocol for 1536-well AlphaScreen read (30ms excitation, 100ms read), about 10 min/plate.

Row | SMILES | activation
1 | CC(C)(C)C(=O)NC(Sc1ccccc1)C(Cl)(Cl)Cl (centres undefined) | inactive: 4.86%
2 | O=P1(Nc2nc3ccc(Cl)cc3s2)COc2ccccc2O1 (centres undefined) | inactive: -2.25%
3 | CCOc1ccc(C2=NCC(CBr)S2)cc1 (centres undefined) | inactive: 0.513%
4 | CC(=O)Nc1ccc([As](=O)(O)O)c(O)c1 | inactive: -0.561%
5 | CC(=O)Nc1ccc(Oc2c([N+](=O)[O-])cc([N+](=O)[O-])cc2[N+](=O)[O-])cc1 | inactive: -12.9%
6 | Cc1ccccc1CN(C)C(=O)COC(=O)C(O)(c1ccccc1)c1ccccc1 | inactive: 7.37%
7 | C[C@H]1OP(=O)(Oc2ccccc2)C[C@@H]2O[C@@H]21 (some centres undefined) | inactive: 24.3%
8 | C[C@@H]1C=CCP(=O)(Oc2ccccc2)O1 (some centres undefined) | inactive: -21.6%
9 | CC(=O)c1ccc(N2CC2c2ccncc2)cc1 (centres undefined) | inactive: 2.94%
10 | c1ccc(-c2nn[nH]n2)c(-c2nn[nH]n2)c1 | inactive: 12.8%
11 | Cc1ccc(NP(=O)(Oc2cccc(C)c2)Oc2cccc(C)c2)nc1 | inactive: -3.85%
12 | CCOC(=O)NC(Sc1ccccc1)C(Cl)(Cl)Cl (centres undefined) | inactive: -4.44%
13 | O=C(NC1CCS(=O)(=O)C1)NP(=S)(Oc1ccccc1)Oc1ccccc1 (centres undefined) | inactive: 1.98%
14 | CCNC(=S)/N=C(\N)N[N+](=O)[O-] | inactive: 5%
15 | CC(NC(=O)COC(=O)C(O)(c1ccccc1)c1ccccc1)c1ccccc1 (centres undefined) | inactive: 9.58%
16 | Cc1ccccc1OP(=O)(Nc1ccccn1)Oc1ccccc1C | inactive: 15.4%
17 | O=c1c2cc([N+](=O)[O-])ccc2[nH]c2c([N+](=O)[O-])cc([N+](=O)[O-])cc12 | inactive: 1.22%
18 | CN(C)C(=O)Oc1noc2ccccc12 | inactive: 3.51%
19 | O=C(OC1CN2CCC1CC2)c1ccccc1 (centres undefined) | inactive: 3.51%
20 | CCC(=O)N1C2C3N(C(=O)CC)C1C1N(C(=O)CC)C(C(N1C(=O)CC)N3C(=O)CC)N2C(=O)CC | inactive: 3.61%
21 | COC(=O)c1cc2c(s1)N=C(c1ccccc1)N(C)P2(=O)N1CCOCC1 (centres undefined) | inactive: -2.68%
22 | CC(=O)NC(SC(=S)N(CC(C)C)CC(C)C)C(Cl)(Cl)Cl (centres undefined) | inactive: -2.67%
23 | Cc1ccc(OP(=O)(Nc2ccccn2)Oc2ccc(C)cc2)cc1 | inactive: 2.74%
24 | O=P(Nc1nc2ccccc2s1)(c1ccccc1)c1ccccc1 | inactive: -3.75%
25 | C[C@H]1OP(=O)(Oc2ccccc2)[C@H](O)[C@H](O)[C@H]1N=[N+]=[N-] (some centres undefined) | inactive: -18.9%

Row | SMILES | activation
26 | CN(C)C1(CNC(=O)c2ccc(Cl)c(S(N)(=O)=O)c2)CCCCC1 | inactive: -11.2%
27 | O=P(Nc1ccccn1)(c1ccc(Br)cc1)c1ccc(Br)cc1 | inactive: -0.108%
28 | O=C(OC1CN2CCC1CC2)c1cccc(Cl)c1 (centres undefined) | inactive: -0.744%
29 | C(Cc1nn[nH]n1)Cc1nn[nH]n1 | inactive: -1.95%
30 | Nc1ccc([As](=O)(O)c2ccc([N+](=O)[O-])cc2)cc1 | inactive: 1.56%
31 | O=[As](O)(c1ccccc1)c1ccc(O)cc1 | inactive: 2.25%
32 | CC(=O)NC(SC(=S)N(C)C)C(Cl)(Cl)Cl (centres undefined) | inactive: -0.771%
33 | O=[N+]([O-])c1ncn(CCn2cnc([N+](=O)[O-])n2)n1 | inactive: 2.3%
34 | O=[N+]([O-])c1ccc(O)c(/C=N/Nc2ccc([N+](=O)[O-])cc2[N+](=O)[O-])c1 | inactive: -1.26%
35 | c1nnnn1CCn1cnnn1 | inactive: 2.53%
36 | O=P(Nc1nccs1)(c1ccccc1)c1ccccc1 | inactive: 3.26%
37 | CC(C)C(=O)NC(Sc1ccccc1)C(Cl)(Cl)Cl (centres undefined) | inactive: 6.78%
38 | Cc1ccc(NP(=O)(Oc2ccccc2)Oc2ccccc2)nc1 | inactive: 0.834%
39 | O=[N+]([O-])c1cc([N+](=O)[O-])c(CCNc2ccccc2)c([N+](=O)[O-])c1 | inactive: -4.72%
40 | CCc1nc2c(n1)c1c(non1O)c1c2no[n+]1[O-] | inactive: -7.69%
41 | CC(=O)N1C2C3N(C(C)=O)C1C1N(C(C)=O)C(C(N1C(C)=O)N3C(C)=O)N2C(C)=O | inactive: -4.09%
42 | O=[N+]([O-])c1cccc2n[nH]nc12 | inactive: 1.32%
43 | COc1ccc(C2=NCC(CBr)S2)cc1 (centres undefined) | inactive: 3.95%
44 | CC1CCN(C(=O)Oc2c(Cl)cc(Cl)c3cccnc23)CC1 | inactive: 2.94%
45 | CC(C)=N/N=C(\N)N[N+](=O)[O-] | inactive: 2.21%
46 | CN(C)C(=O)OCCc1n(C)cc[n+]1C | inactive: 13.3%
47 | CCN(/C(=N/P(=O)(N1CCOCC1)N1CCOCC1)N1CCOCC1)c1ccc(OC)cc1 | inactive: -3.43%
48 | Nc1ccc([As](=O)(O)c2ccc(N)cc2)cc1 | inactive: -4%
49 | C[N+]1=C2C=CC=CC=C2SC12C([N+](=O)[O-])=CC([N+](=O)[O-])=C[C-]2[N+](=O)[O-] (centres undefined) | inactive: -3.03%
50 | O=C(Nc1cc([As](=O)(O)O)ccc1O)c1ccccc1 | inactive: 3.92%

Row | SMILES | activation
51 | O=C(O)CNc1ccc([As](=O)(O)O)cc1 | inactive: -5.12%
52 | O=[N+]([O-])c1cccc(NC2=NCC(CBr)S2)c1 (centres undefined) | inactive: 35.1%
53 | O=[N+]([O-])c1ncn(CCn2ncnc2[N+](=O)[O-])n1 | inactive: 2.94%
54 | CC(C)(C)C(=O)NC(Sc1ccncn1)C(Cl)(Cl)Cl (centres undefined) | inactive: 4.55%
55 | Cc1cc(SC(NC(=O)c2ccc(F)cc2)C(Cl)(Cl)Cl)ncn1 (centres undefined) | inactive: -1.83%
56 | CCOP(=O)(Nc1ccccc1)OCC | inactive: 6.94%
57 | Cc1ccc(NP(=O)(Oc2ccccc2F)Oc2ccccc2F)nc1 | inactive: 31.6%
58 | O=P(Nc1nc2ccc(Cl)cc2s1)(c1ccccc1)c1ccccc1 | inactive: -1.79%
59 | CC(=O)Nc1ccc([As](=O)(O)O)cc1 | inactive: -0.636%
60 | O=C(O)c1ccccc1[As](=O)(O)O | inactive: -4.65%
61 | Nc1cccc2ccc([As](=O)(O)O)cc12 | inactive: -4.85%
62 | CCN(N=Nc1nonc1N)c1nonc1N | inactive: -3.84%
63 | O=[N+]([O-])c1cc([N+](=O)[O-])c(CCN2CCOCC2)c([N+](=O)[O-])c1 | inactive: -20%
64 | Clc1ccc(Cl)c(NC2=NCC(CBr)S2)c1 (centres undefined) | inactive: 1.62%
65 | COc1ccccc1OP(=O)(Nc1ccc(C)cn1)Oc1ccccc1OC | inactive: -0.589% [at 11.5 µM]
66 | Cc1ccc(OP(=O)(Nc2nccs2)Oc2ccc(C)cc2)cc1 | inactive: 11.5%
67 | CN(C(=O)Cc1ccc(Cl)c(Cl)c1)[C@H]1CCCC[C@H]1N1CCCC1 | inactive: -0.947%
68 | Cc1ccc(N/C(=N/P(=O)(N2CCOCC2)N2CCOCC2)N2CCOCC2)cc1 | inactive: 9.21%
69 | NC(=O)c1cc([N+](=O)[O-])cc([N+](=O)[O-])c1N | inactive: -1.3%
70 | Oc1ccccc1CNc1ccccn1 | inactive: 0.93%
71 | O=C(NC(Sc1ccncn1)C(Cl)(Cl)Cl)c1ccccc1 (centres undefined) | inactive: 1.34%
72 | Nc1cc(N)c2nonc2c1[N+](=O)[O-] | inactive: 6.06%
73 | CC(C)CC(=O)NC(Sc1ccc(Cl)cc1)C(Cl)(Cl)Cl (centres undefined) | inactive: -3.32%
74 | COc1ccc2nc(NP(=O)(c3ccccc3)c3ccccc3)sc2c1 | inactive: 11.8%
75 | COc1cc(I)ccc1[As](=O)(O)O | inactive: -4.36%

Row | SMILES | activation
76 | Cc1c2c(nc3ccccc13)SC(C(Cl)Cl)C2 (centres undefined) | inactive: 5.94%
77 | O=C(OC1CN2CCC1CC2)C12CC3CC(CC(C3)C1)C2 (centres undefined) | inactive: 4.42%
78 | Cc1cc(=O)[nH]c(N[N+](=O)[O-])n1 | inactive: 1.3%
79 | COc1ccc(N/C(=N/P(=O)(N2CCOCC2)N2CCOCC2)N2CCOCC2)cc1 | inactive: -2.51%
80 | Cc1ccc(OP(=O)(Nc2ccc([N+](=O)[O-])cn2)Oc2ccc(C)cc2)cc1 | inactive: -5.45%
81 | Cc1ccc2nc3c(c(C)c2c1)CC(C(Cl)Cl)S3 (centres undefined) | inactive: 1.32%
82 | O=[As](O)(c1ccc(O)cc1)c1ccccc1O | inactive: -1.79%
83 | C[As](=O)(O)c1cccc(C(=O)O)c1 | inactive: 6.62%
84 | COc1cc(C(=O)NCC2(N3CCOCC3)CCCCC2)ccc1OCC(C)C | inactive: -1.6%
85 | CC(C)NC(=O)NP(=O)(Oc1ccccc1)Oc1ccccc1 | inactive: -0.897%
86 | CCN(CC)C(=S)SC(NC=O)C(Cl)(Cl)Cl (centres undefined) | inactive: 4.21%
87 | O=[N+]([O-])c1cc([N+](=O)[O-])c(-c2ccn[nH]2)s1 | inactive: 2.76%
88 | ClCCSc1nnc(-c2cccnc2)o1 | inactive: 2.31%
89 | CC(C)c1ccc(OP(=O)(Nc2ccccn2)Oc2ccccc2F)cc1 (centres undefined) | inactive: -1.35%
90 | CCCCOc1ccc(C(=O)NCC2(N3CCCCC3)CCCCC2)cc1OC | inactive: -1.18%
91 | Cc1cc(SC(NC(=O)c2ccccc2)C(Cl)(Cl)Cl)nc(C(C)C)n1 (centres undefined) | inactive: -0.575%
92 | CCOC(=O)Nc1ccc([As](=O)(O)O)c(O)c1 | inactive: 7%
93 | Cc1cc(SC(NC=O)C(Cl)(Cl)Cl)ncn1 (centres undefined) | inactive: -7.28%
94 | O=P(Nc1ccccn1)(c1cccc2ccccc12)c1cccc2ccccc12 | inactive: 3.1%
95 | O=[N+]([O-])c1ccc(Nc2ccc(Oc3ccc([N+](=O)[O-])cc3[N+](=O)[O-])cc2)c([N+](=O)[O-])c1 | inactive: -5.03%
96 | CCOC(=O)Nc1cccc([As](=O)(O)O)c1 | inactive: -1.67%
97 | O=C(COc1ccccc1)OC1CN2CCC1CC2 (centres undefined) | inactive: 4.47%
98 | O=C(Nc1ccncc1[N+](=O)[O-])c1ccc([N+](=O)[O-])cc1[N+](=O)[O-] | inactive: -14.3%
99 | COP1(=S)c2c(C)nn(CCC#N)c2N=C(c2ccc(F)cc2)N1C (centres undefined) | inactive: -3.4%
